pIC50: −log10 of the molar value.
Biological target: T1, Thromboxane-A synthase (Homo sapiens, UniProt P24557)
T1 sequence (P24557 whole entry): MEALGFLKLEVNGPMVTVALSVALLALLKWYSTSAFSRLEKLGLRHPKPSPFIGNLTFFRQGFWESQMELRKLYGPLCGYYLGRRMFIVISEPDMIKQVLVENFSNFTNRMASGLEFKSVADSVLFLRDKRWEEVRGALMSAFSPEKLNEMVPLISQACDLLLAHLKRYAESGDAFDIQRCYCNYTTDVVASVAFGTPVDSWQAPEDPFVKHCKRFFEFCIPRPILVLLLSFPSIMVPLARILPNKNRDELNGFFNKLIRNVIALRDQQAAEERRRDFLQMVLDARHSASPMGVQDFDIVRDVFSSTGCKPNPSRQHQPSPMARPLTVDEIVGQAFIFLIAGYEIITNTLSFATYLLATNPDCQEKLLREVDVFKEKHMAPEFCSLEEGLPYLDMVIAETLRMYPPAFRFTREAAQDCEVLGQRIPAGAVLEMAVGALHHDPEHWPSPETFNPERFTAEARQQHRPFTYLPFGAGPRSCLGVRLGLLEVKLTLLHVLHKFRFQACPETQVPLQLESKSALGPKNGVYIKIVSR
Test: In vitro inhibitory concentration of compound against thromboxane A2 synthase

pIC50: 8.40
Structure (SMILES): CC(C)(C)/N=C(\NC#N)Nc1cccc(/C(=C/CCCC(=O)O)c2cccnc2)c1
